Source: PubChem BioAssay AID652105 (National Center for Advancing Translational Sciences (NCATS), 2013)
Only a part is listed here, and it is no random draw. Some salts and complexes are drawn in separate pieces, as the source files them; their charges need not balance. The source made the active and inactive calls. Rule for the calls: active = max response of -50% or lower; inconclusive = between -30% and -50%; inactive = -30% or higher.
% is set by controls: 0 for no effect and ±100 for the full control effect.
Note: value at the top dose of about 77 µM.

By UniProt entry, the sequences of proteins in these tests, tags left out.
UniProt P48426, whole entry: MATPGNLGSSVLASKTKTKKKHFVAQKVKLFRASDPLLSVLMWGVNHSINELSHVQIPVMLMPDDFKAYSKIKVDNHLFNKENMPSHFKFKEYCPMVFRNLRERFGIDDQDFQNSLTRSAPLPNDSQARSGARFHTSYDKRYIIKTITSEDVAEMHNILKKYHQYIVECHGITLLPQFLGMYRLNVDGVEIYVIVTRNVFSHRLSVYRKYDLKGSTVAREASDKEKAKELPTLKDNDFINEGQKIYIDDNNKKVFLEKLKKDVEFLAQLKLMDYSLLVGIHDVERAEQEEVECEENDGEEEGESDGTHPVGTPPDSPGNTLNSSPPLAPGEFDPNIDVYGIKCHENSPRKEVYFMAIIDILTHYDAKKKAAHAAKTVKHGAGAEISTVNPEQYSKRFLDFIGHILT

These molecules were tested against Phosphatidylinositol 5-phosphate 4-kinase type-2 alpha (Homo sapiens) (UniProt P48426) (assay: qHTS for Inhibitors of phosphatidylinositol 5-phosphate 4-kinase (PI5P4K)). Conditions: PI5P4Kalpha enzyme, ADP-Glo luminescence, 60 min; active compounds read low.
Excerpt: In addition to finding PI5P, we discovered the type II phosphatidylinositol 5-phosphate 4-kinase (PI5P4K) family (alpha, beta, gamma isoforms) that catalyze the conversion of PI5P to PI(4,5)P2. Alternatively, PI(4,5)P2 can also be synthesized through phosphatidylinositol-4-phosphate (PI4P) by the type I phosphatidylinositol 4-phosphate 5-kinases (PI4P5K). These PI5P4K enzymes therefore represent one way by which cells can regulate endogenous PI5P levels and play important roles in insulin signaling and in stress responses.
This proposal aims to identify and optimize specific modulators of human PI5P4K, phosphatidylinositol-5-phosphate 4-kinase (Type II PIPK), a family of kinases that regulate AKT signaling and tumor cell growth. In this project we aim to identify inhibitors of human PI5P4K using a quantitative high-throughput screening approach against the MLSMR containing ~400,000 small molecules.
NIH Chemical Genomics Center [NCGC]
NIH Molecular Libraries Probe Centers Network [MLPCN]
Assay Submitter (PI): Atsuo Sasaki, Beth Israel Deaconess Medical Center
2 microL of PI5P4Kalpha/substrate buffer (columns 1-2, 5-48) are dispensed into Greiner white solid bottom 1536-well assay plates; column 3 receives only PI5P4Kalpha buffer as 0x substrate controls; column 4 receives only substrate buffer as 0x PI5P4Kalpha controls. Final assay buffer consists of 0.038 M HEPES pH 7.4, 0.28 mM EGTA, 0.1% CHAPS, and 5% DMSO (final concentration). Compounds are then transferred via Kalypsys pin tool equipped with 1536-pin array (10 nL slotted pins, V&P Scientific, San Diego, CA). Following addition of compound, 1 microL of ATP (5 microM final concentration, all columns) is added to initiate the reaction. ATP is diluted in an assay buffer consisting of 0.02 M HEPES pH 7.4, 60 mM MgCl2, 15 microM ATP, and 0.1% CHAPS. The plates are then incubated at room temperature for 60 minutes. ADP-Glo reagent 1 is added (2 microL) and plates incubated for 45 minutes, before ADP-Glo reagent 2 (4 microL) is added and plates incubated for 30 minutes. They are then transferred to a ViewLux high-throughput CCD imager (PerkinElmer) wherein single end-point measurements of luminescence are acquired using a clear filter.
With `COc1ccc(C(c2nnnn2C2CCCC2)N2CCC(n3c(=O)[nH]c4ccccc43)CC2)cc1` (stereo not drawn) the max response was inactive: -0.147%. With `O=[N+]([O-])c1cc([N+](=O)[O-])c(Nc2ccc(Cl)cc2)c([N+](=O)[O-])c1` the max response was inactive: -0.565%. In the case of `CCCOc1ccc(C(=O)NCC2(N(C)C)CCCCC2)cc1OC`, the max response is reported as inactive: 5.38%. With `Cc1ccc(C(=O)NCC2(N(C)C)CCCCC2)o1` the max response was inactive: 1.84%. In the case of `O=C(OC1CN2CCC1CC2)c1ccc([N+](=O)[O-])cc1` (stereo not drawn), the max response is reported as inactive: -2.19%. In the case of `CN1CCC(Nc2cccc(F)c2)CC1`, the max response is reported as inactive: 10.9%. `O=C(NCC1(N2CCCCC2)CCCCC1)c1cncc(Br)c1` was tested, and the max response was inactive: 3.57%. `COc1ccc2c(c1O)-c1c(O)c(OC)cc3c1[C@H](C2)[N+](C)(C)CC3.O=[N+]([O-])c1cc([N+](=O)[O-])c([O-])c([N+](=O)[O-])c1[O-]` was tested, and the max response was active: -66.3%. With `CCN(CC)CCCNc1ccccc1[N+](=O)[O-].O=[N+]([O-])c1cc([N+](=O)[O-])c(O)c([N+](=O)[O-])c1` the max response was inactive: 1.29%. `O=C(NCC1(N2CCOCC2)CCCCC1)c1cc(F)c(F)cc1Cl` was tested, and the max response was inactive: -0.0114%. For `CCC(c1nnnn1C(C)(C)C)N1CCC(n2c(=O)[nH]c3ccccc32)CC1` (stereo not drawn), the max response was inactive: -0.346%. In the case of `COc1cc(OC)c(C(=O)NCC2(N(C)C)CCCCC2)cc1OC`, the max response is reported as inactive: 1.39%. In the case of `CCCCn1nnnc1C(c1ccnc2ccccc12)N1CCC(n2c(=O)[nH]c3ccccc32)CC1` (stereo not drawn), the max response is reported as inactive: -0.982%. `CC(C)c1ccc(NC2CCN(C(=O)OC(C)(C)C)CC2)cc1` was tested, and the max response was inactive: 5.06%. For `CCCCn1nnnc1C(c1ccccc1OC(F)(F)F)N1CCC(n2c(=O)[nH]c3ccccc32)CC1` (stereo not drawn), the max response was inactive: 7.16%. In the case of `CN(C)c1cccc(C(=O)NCC2(N3CCCCC3)CCCCC2)c1`, the max response is reported as inactive: -1.29%. `COc1ccc(CN(CCCl)CCCl)cc1Cl` was tested, and the max response was inactive: -3.95%. For `O=C(NCC1(N2CCOCC2)CCCCC1)c1cc(=O)[nH]c2ccccc12`, the max response was inactive: 1.93%. With `COc1cc(C(=O)NCC2(N3CCCCC3)CCCCC2)ccc1OC(F)F` the max response was inactive: -0.895%. For `COc1ccc(NC2CCN(C(=O)OC(C)(C)C)CC2)cc1`, the max response was inactive: 2.47%. For `CC(C)c1ccc(C(=O)NCC2(N3CCOCC3)CCCCC2)cc1`, the max response was inactive: -15.4%. In the case of `CN1CCN(CCOC(=O)C(O)(c2ccccc2)c2ccccc2)CC1`, the max response is reported as inactive: 3.91%. With `CCCCn1nnnc1C(c1cccc2ccccc12)N1CCC(n2c(=O)[nH]c3ccccc32)CC1` (stereo not drawn) the max response was inactive: -3.28%.
